From ChEMBL document CHEMBL4806967, “Heterocyclic kinase inhibitors and uses thereof” (2020)

Assay: Volume of distribution at steady state in CD-1 mouse at 1 mg/kg, iv
Format: ADME, organism-based
Details: in vivo

Structure (SMILES): Cc1nc(Nc2ncc(C(=O)Nc3c(C)csc3Cl)s2)cc(N2CCN(CCO)CC2)n1
- Vdss: 5.4 L/kg
